Reference: ChEMBL document CHEMBL3046299, “Neonicotinoid substituents forming a water bridge at the nicotinic acetylcholine receptor” (J Agric Food Chem, 2009)

Test system: Drosophila melanogaster
Assay: Displacement of [3H]IMI from nicotinic acetylcholine receptor in Drosophila melanogaster brain at Ki concentration

`O=[N+]([O-])N=C1NCCN1` showed an inhibition of 0%.
